Article PMC5522071, “Preclinical development of G1T38: A novel, potent and selective inhibitor of cyclin dependent kinases 4/6 for use as an oral antineoplastic in patients with CDK4/6 sensitive tumors” (Oncotarget, 2017)

By UniProt entry, the sequences of proteins in these tests, tags left out.
UniProt P50750, whole entry: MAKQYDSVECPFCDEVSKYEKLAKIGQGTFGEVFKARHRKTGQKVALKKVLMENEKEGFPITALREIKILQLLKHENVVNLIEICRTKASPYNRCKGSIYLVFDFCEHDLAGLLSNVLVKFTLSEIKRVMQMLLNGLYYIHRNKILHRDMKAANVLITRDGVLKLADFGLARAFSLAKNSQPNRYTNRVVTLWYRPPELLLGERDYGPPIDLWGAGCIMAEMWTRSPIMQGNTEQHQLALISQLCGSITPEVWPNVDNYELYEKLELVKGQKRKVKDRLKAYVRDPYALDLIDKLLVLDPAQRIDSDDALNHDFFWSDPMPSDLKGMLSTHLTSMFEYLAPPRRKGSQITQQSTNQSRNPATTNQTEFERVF

Target: T1, CDK9/Cyclin T (Homo sapiens, UniProt P50750)
T1 construct: purchased Nanosyn, Inc. (contract assay)
Details: at the biochemical IC50

CC(C)N1CCN(c2ccc(Nc3ncc4cc5n(c4n3)C3(CCCCC3)CNC5=O)nc2)CC1.Cl.Cl [G1T38, 2′-((5-(4-isopropylpiperazin-1-yl)pyridin-2-yl)amino)-7′, 8′dihydro-6′Hspiro[cyclohexane1,9′ pyrazino[1′,2′:1,5]pyrrolo[2,3-d]pyrimidin]-6′-one di-hydrochloride]
selectivity between CDK4/cyclin D1 and CDK9/cyclin T: ~ 30 fold
